The assay concerns the target T1, HMG-CoA reductase (Homo sapiens, UniProt P04035).
T1 construct: gene HMGCR; catalytic domain of the human enzyme (recombinant GST fusion protein expressed in E. coli)
T1 sequence (P04035 426-888 limits assumed): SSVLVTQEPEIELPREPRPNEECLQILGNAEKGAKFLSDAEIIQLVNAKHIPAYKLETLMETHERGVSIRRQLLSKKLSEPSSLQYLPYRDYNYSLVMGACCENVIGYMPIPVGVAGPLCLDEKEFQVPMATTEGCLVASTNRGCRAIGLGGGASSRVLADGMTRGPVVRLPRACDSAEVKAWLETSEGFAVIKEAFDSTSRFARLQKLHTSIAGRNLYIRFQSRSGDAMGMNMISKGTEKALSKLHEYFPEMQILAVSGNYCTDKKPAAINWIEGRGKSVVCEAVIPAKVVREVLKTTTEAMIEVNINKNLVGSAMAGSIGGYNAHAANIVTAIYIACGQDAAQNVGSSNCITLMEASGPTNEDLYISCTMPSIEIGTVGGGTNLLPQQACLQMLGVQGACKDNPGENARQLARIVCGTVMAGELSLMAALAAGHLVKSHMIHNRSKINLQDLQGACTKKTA
Briefly: spectrophotometric HMG-CoA reductase assay kit (Sigma), NADPH oxidation. Format: biochemical.

In turn, `CC[C@H](C)C(=O)O[C@H]1C[C@H](O)C=C2C=C[C@H](C)[C@H](CC[C@@H](O)C[C@@H](O)CC(=O)O)[C@H]21` [Pravastatin] displayed a 50% inhibitory concentration (IC50) of 70 nM.
